Values of other authors, collected in patent publication US20200345862A1, “TRANSITION METAL-BASED FUNCTIONAL MOIETIES FOR PREPARING CELL TARGETING CONJUGATES” (priority 2017, published 2020).

How the values were obtained:
JIMT-1 = conditions: single dose; JIMT-1 breast cancer xenograft; cited from earlier work
NCI-N87 = conditions: single dose; NCI-N87 gastric cancer xenograft; cited from earlier work

## trastuzumab-Lx-AF
JIMT-1
  efficacy versus trastuzumab-mal-AF and ado-trastuzumab emtansine: outperformed
NCI-N87
  efficacy versus trastuzumab-mal-AF and ado-trastuzumab emtansine: outperformed
